Experimental data taken from patent publication US5731160A, “Induction of antigen specific T-lymphocyte responses by stimulation with peptide loaded MHC class I molecules on antigen processing defective mammalian cell lines” (Rijksuniversiteit Leiden, priority 1992, dated 1998).

Tests used:
Format in all cases: cell-based
Conditions in all cases: addition of human β2-microglobulin
murine RMA-S cells = test: Peptide-loaded MHC Class I expression with added human β2-microglobulin, RMA-S
human 174.CEM T2 cells = test: Peptide-loaded MHC Class I expression with added human β2-microglobulin, T2
[1] = tested on: RMA-S cells and 174.CEM T2 cells; test: Primary CTL response induction with added human β2-microglobulin

## human β2-microglobulin: human β2-microglobulin added during peptide loading
Murine RMA-S cells
  Effect on peptide-loaded MHC Class I expression: further enhances peptide-loaded MHC Class I expression
Human 174.CEM T2 cells
  Effect on peptide-loaded MHC Class I expression: further enhances peptide-loaded MHC Class I expression
[1]
  Effect on subsequent primary CTL response induction: enhanced
